From ChEMBL document CHEMBL5053542, “C-terminal modified Enkephalin-like tetrapeptides with enhanced affinities at the kappa opioid receptor and monoamine transporters” (Bioorg Med Chem, 2021)
Some results for these compounds are left out of this collection, so the calls shown say nothing about other tests.

Chains of the proteins cited; added tags and fusions are not shown.
UniProt P23975, whole entry: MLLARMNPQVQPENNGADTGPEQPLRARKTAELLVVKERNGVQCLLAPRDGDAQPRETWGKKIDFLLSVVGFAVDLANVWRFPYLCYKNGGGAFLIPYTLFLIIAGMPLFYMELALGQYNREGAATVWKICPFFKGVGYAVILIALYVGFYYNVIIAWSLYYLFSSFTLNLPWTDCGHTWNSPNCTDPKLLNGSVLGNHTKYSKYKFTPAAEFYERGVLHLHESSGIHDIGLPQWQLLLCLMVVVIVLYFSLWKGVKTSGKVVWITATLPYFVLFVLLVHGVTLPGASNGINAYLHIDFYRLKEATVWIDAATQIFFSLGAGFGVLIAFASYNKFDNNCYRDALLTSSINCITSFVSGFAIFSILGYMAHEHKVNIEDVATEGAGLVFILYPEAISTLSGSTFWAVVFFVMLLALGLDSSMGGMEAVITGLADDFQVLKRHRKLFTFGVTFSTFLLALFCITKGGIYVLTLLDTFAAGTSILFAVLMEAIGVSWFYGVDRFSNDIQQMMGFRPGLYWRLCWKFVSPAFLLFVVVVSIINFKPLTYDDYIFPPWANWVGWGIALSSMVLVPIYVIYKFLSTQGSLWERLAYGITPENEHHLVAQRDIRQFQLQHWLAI

Molecular target: Sodium-dependent noradrenaline transporter (Homo sapiens) (UniProt P23975)
Experiment: Displacement of [3H]-Nisoxetine from human NET expressed in HEK cell membrane at 10 uM by radioligand binding assay relative to control

`CCCC[C@@H](NC(=O)[C@@H](N)Cc1ccc(O)cc1)C(=O)NCC(=O)N[C@@H](Cc1ccc(F)cc1)C(=O)N1CCC(N(C(=O)CC)c2ccc(Cl)c(Cl)c2)CC1` showed an inhibition of less than 50%.
